{
  "source": "patent US11299518B2",
  "about": "“Fusion respiratory syncytial virus inhibitors and use thereof” (priority 2016, dated 2022)",
  "key": {"[1]": {"experiment": "CD spectroscopy, percentage of helicity", "assay_type": "physicochemical", "settings": "CD at 222 nm, 10 mM phosphate buffer pH 7.5, 50 μM peptide, 25° C.", "experimental": "The secondary structure of the peptides was then characterized by circular dichroism (DC) as described below.\nThe circular dichroism spectra were acquired on a Jasco J-810 and on a Chirascan spectropolarimeter. The samples were prepared in 10 mM phosphate buffer, pH 7.5, at a peptide concentration of 50 μM. Data were recorded at 25° C. by stepscan from 180 nm to 260 nm in a 0.1 cm pathlength quartz cell using 0.2 nm wavelength increments, 1 nm bandwidth and a response time of 0.5 sec. Each spectrum was an average of three measurements and was subtracted from buffer baseline. The data were converted to per residue molar ellipticity units [θ] (deg·cm2·dmol−1·residue−1) and smoothed using the Igor software. The percentage of helicity was calculated as it follows:\n[formula] whereby CD222=molar ellipticity at 222 nm in [mdeg], N=number of amino acids in the peptide and C=peptide molar concentration [mol/l]."}, "[2]": {"system": "recombinant green fluorescent protein (GFP)-expressing RSV virus (strain A2)", "assay_type": "cell-based", "settings": "A549 cells", "experimental": "The inhibitory activity of the peptides of the invention was assessed in a cellular viral fusion assay as compared to comparative peptides as follows. A549 cells were infected with a recombinant green fluorescent protein (GFP)-expressing RSV virus (strain A2) obtained as described below and in Hallak et al., 2000, Virology, 271:264-275, and the inhibitory activity of the peptides was quantified by flow cytometry.\nFollowing rapid thawing of the frozen eGFP encoding RSV virus at […], the virus was vortexed for 2 min, and pipetted up and down to break aggregates. Serial 4-fold dilutions of inhibitors were prepared in glass tubes and mixed with a volume of virus required to achieve approximately 50% of infection in 200 μl of media containing 2% of FCS. The resulting mixture was added to 24-well plates containing A549 cells. Cells were incubated for 2 hours at 37° C., the media was replaced, and cells were incubated for an additional 24 hours. Cells were treated with 300 μl of trypsin for 10 min at 37° C., and the detached cells were diluted in 1 ml of culture medium. Following centrifugation at 1′700 rpm, the pellet was resuspended in 300 μl of PBS+1% SBF (V/V) and GFP positive cells were counted by FACS analysis."}},
  "data": [
    {"smiles": "CC[C@H](C)[C@@H]1NC(=O)[C@H](Cc2ccccc2)NC(=O)[C@@](C)(NC(=O)[C@H](CC(C)C)NC(=O)[C@H](CO)NC(=O)[C@H](CCC(N)=O)NC(=O)[C@H](CCC(=O)O)NC(C)=O)CCCC=CCCC[C@@](C)(C(=O)N[C@@H](CO)C(=O)N[C@@H](CC(=O)O)C(=O)N[C@@]2(C)CCCC=CCCC[C@@](C)(C(=O)N[C@H](C(N)=O)C(C)C)NC(=O)[C@H](Cc3c[nH]cn3)NC(=O)[C@H](CC(C)C)NC(=O)[C@H](CC(C)C)NC2=O)NC(=O)[C@H](CCCNC(=N)N)NC1=O", "note": "[Peptide 3ac, EQSL X504FIR X508 SD X511 LLH X515 V]", "values": [
      {"measurement": "% helicity", "setting": "[1]", "result": 47.2, "unit": "%"},
      {"measurement": "EC50", "setting": "[2]; FACS, read-out: EC50, block of viral infection of cells", "result": "15.3 ± 5.9", "unit": "µM"}
    ]},
    {"smiles": "CC[C@H](C)[C@@H]1NC(=O)[C@H](CCCCN)NC(=O)[C@](C)(NC(C)=O)CCCCCCC=CCCC[C@@](C)(C(=O)N[C@@H](Cc2ccccc2)C(=O)N[C@H](C(=O)N[C@@H](CCCNC(=N)N)C(=O)N[C@]2(C)CCCCCCC=CCCC[C@@](C)(C(=O)N[C@H](C(N)=O)C(C)C)NC(=O)[C@H](Cc3c[nH]cn3)NC(=O)[C@H](CC(C)C)NC(=O)[C@H](CC(C)C)NC(=O)[C@H](CCC(=O)O)NC(=O)[C@H](CC(=O)O)NC(=O)[C@H](CO)NC2=O)[C@@H](C)CC)NC(=O)[C@H](CC(C)C)NC(=O)[C@H](CO)NC(=O)[C@H](CCC(N)=O)NC(=O)[C@H](CC(N)=O)NC1=O", "note": "[Peptide 4ef, 8497 KINQSL X504 FIR 8508 SDELLH X515 V, reference compound]", "values": [
      {"measurement": "% helicity", "setting": "[1]", "result": 50.7, "unit": "%"},
      {"measurement": "inhibitory activity in cellular viral fusion assay", "setting": "[2]", "result": "inactive"}
    ]}
  ]
}
